One molecule from patent publication US9169254B2, “Spiroimidazolone derivative” (Chugai Seiyaku Kabushiki Kaisha, priority 2009, dated 2015) can be followed below.

For this test, the target named is T1, human PTH1 receptor (Homo sapiens, UniProt Q03431).
T1 sequence (Q03431 27-593): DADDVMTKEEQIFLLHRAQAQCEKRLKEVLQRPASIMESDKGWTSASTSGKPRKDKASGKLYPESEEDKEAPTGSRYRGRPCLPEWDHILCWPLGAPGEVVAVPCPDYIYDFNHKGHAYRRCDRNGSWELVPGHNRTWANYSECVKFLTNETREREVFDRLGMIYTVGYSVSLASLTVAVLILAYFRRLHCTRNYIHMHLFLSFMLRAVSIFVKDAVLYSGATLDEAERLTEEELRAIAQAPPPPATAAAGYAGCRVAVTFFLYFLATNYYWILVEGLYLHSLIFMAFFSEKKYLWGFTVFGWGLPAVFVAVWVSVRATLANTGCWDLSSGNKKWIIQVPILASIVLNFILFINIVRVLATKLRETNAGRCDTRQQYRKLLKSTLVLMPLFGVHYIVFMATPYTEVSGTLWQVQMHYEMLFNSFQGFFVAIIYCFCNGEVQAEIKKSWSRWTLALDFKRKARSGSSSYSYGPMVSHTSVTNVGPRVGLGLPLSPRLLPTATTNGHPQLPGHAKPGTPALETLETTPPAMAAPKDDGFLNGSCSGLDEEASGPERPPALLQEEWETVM
Briefly: In vitro cAMP signal activity in HKRK-B7 cells (LLC-PK1 cells overexpressing the human PTH1 receptor). The conditions noted are these: 0.1 µM. It counts as cell-based.

Structures are written as SMILES.

For the molecule `Cc1cc(CC(=O)N(C)C)ccc1/C=C/S(=O)(=O)N1CCC2(CC1)N=C(C1CCC(C)CC1)NC2=O` (stereo not shown) [Compound 987, N,N-Dimethyl-2-(3-methyl-4-{(E)-2-[2-(4-methyl-cyclohexyl)-4-oxo-1,3,8-triaza-spiro[4.5]dec-1-ene-8-sulfonyl]-vinyl}-phenyl)-acetamide], the “cAMP production activity (%)” value worked out at 54%.
